Measured values: paper PMC6006426 (2018)

Test system: GFP-fused MATE1 protein
Settings: preliminary study

## C[C@@H](Oc1cc(-c2cnn(C3CCNCC3)c2)cnc1N)c1c(Cl)ccc(F)c1Cl [Crizotinib, crizotinib]
  Change of intracellular signals of GFP-fused MATE1 protein: no change
